Target: PIK3CA (human) (UniProt P42336)
Experiment: Assessment of PIK3CA Kinase Activity

By UniProt entry, the sequences of proteins in these tests, tags left out.
UniProt P42336, whole entry, looked up: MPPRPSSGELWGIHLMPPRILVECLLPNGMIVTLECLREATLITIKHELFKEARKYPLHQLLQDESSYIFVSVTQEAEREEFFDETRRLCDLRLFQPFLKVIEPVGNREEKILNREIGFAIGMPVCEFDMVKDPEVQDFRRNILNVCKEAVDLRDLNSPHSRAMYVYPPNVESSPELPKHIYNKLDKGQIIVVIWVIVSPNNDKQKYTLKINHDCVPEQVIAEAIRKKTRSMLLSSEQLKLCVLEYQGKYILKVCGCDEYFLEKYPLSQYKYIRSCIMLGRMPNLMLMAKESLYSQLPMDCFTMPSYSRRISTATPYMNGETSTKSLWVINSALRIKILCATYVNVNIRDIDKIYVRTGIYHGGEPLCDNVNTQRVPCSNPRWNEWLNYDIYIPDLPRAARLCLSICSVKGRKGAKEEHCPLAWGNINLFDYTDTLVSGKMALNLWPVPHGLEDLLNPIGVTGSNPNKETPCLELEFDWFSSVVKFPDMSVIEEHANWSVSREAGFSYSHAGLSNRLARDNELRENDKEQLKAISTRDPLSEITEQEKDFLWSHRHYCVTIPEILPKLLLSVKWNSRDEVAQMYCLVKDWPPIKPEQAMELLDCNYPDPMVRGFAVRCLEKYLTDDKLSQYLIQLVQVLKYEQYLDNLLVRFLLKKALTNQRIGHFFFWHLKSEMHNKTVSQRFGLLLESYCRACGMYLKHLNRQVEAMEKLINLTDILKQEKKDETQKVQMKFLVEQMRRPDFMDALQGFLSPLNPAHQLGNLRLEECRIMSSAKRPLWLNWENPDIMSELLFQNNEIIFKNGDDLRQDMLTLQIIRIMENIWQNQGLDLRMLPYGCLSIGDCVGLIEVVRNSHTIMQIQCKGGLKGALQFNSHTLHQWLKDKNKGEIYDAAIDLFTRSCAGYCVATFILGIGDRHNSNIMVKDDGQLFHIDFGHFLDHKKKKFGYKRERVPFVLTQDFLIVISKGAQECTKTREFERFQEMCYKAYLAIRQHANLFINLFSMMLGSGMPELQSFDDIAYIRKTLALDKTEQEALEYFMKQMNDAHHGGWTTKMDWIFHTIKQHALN

Structure (SMILES): Cc1nc(-c2cn3c(n2)-c2ccc(-c4cnn(C(C)(C)C(N)=O)c4)cc2OCC3)n(C(C)C)n1
- IC50: < 1000 nM

Source: the Kinase Knowledgebase extract (Sharma et al. 2016)
